High-throughput results: PubChem BioAssay, National Center for Advancing Translational Sciences (NCATS)
Sampled rows, rich in hits. Any-hit rate of the full collection: about 1%.
miR-21 reporter: miR-21 reporter, rising signal; HeLa miR-21 FLuc reporter, luciferase, 48 h; Potency, µM (top dose mostly 38.3 µM), without a hit: at the highest dose reporter change, positive = more light; 340,000 tested, under 10 active; active = well fitted rising curve with a large enough effect; inconclusive = small, poorly fitted or top-dose-only effect; inactive = no such curve, though single readings can be large or run the other way;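 further: % of control where 0% means no effect; miR-21 action dims this reporter so a rising signal means less miR-21 action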
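Luminescence from a firefly luciferase reporter carrying a miR-21 binding site downstream, stably expressed under a CMV promoter in HeLa cells that make miR-21 endogenously, reports miRNA modulation after 48 h compound exposure up to approximately 40uM final.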
RXFP1 antag: blocks the human relaxin receptor RXFP1; 350,000 tested, 0.59% active; Q9HBX9; HEK293-RXFP1, relaxin-stimulated cAMP HTRF, 30 min; stronger effect = lower value; activity change, negative = inhibition, % at 57.5 µM;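 active = activity change of -60% or lower, but not beyond a set lower limit; inconclusive = change between -60% and -40%, or beyond the set limit; inactive = change above -40%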; note: % is set by controls: 0 for no effect and ±100 for the full control effect
gsp agonist: activates gsp, the McCune-Albright syndrome mutation; 340,000 tested, 0.13% active; Potency, µM (top dose mostly 76.9 µM), inactives show at the top dose activation (cAMP increase), actives largely listed as activators; gsp mutant cells, cAMP HTRF, 30 min; AID 624287; active = well fitted activation curve with a large enough effect; inconclusive = small, poorly fitted or top-dose-only effect, or another doubt; inactive = no such curve, though single readings can be large or run the other way; cell line not stated here;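 note: phosphodiesterase inhibitor Ro 20-1724 added with compounds to block cAMP breakdown; potency is the fitted concentration of half-maximal effect; nearly all actives have a fitted effect of over 60% in size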
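Cells stably selected in G418 were plated at 2000/well, grown 16-24 hr, then given compounds in DMSO with the PDE inhibitor […] (300 uM solution added) for 30 min at 37C; cAMP was read by HTRF.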
gsp antagonist: antagonists of gsp mutant (McCune-Albright syndrome); 340,000 tested, 0.4% active; Potency, µM (doses to about 76.9 µM), for inactives: at the highest dose activity change, negative = inhibition, actives largely listed as inhibitors; gsp-mutant cells, cAMP HTRF, 30 min; calls by dose curve; cell line not stated here;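 note: intracellular cAMP measured with PDE inhibitor Ro 20-1724 present during compound exposure; potency is the fitted concentration of half-maximal effect; % is set by controls: 0 for no effect and ±100 for the full control effect; nearly all actives have a fitted effect of over 65% in size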
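HTRF cAMP read-out (cAMP-d2 plus anti-cAMP antibody-K in lysis buffer, 30 min RT). Before lysis, cells are exposed to compounds with […] for 30 min at 37C in DPBS containing Ca/Mg, BSA and Tween 20.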
Luc counter: blocks Kinase-Glo luciferase, a counter-screen artifact | Q27757 | Kinase-Glo luciferase, ATP luminescence, 8 min | Potency, µM (titrated, usually from 38.3 µM), for inactives: top-dose activity change, negative = inhibition, usual class: inhibitors | 200,000 tested, 0.28% active | AID 1379; note: potency is the fitted concentration of half-maximal effect; % is set by controls: 0 for no effect and ±100 for the full control effect; nearly all actives have a fitted effect of over 60% in size
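Compound is pinned into ATP-containing buffer (10 uM ATP, imidazole pH 7.2, 7 mM MgCl2). Kinase-Glo luciferase reagent is then added. Light output is recorded following an 8-min room-temperature incubation.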
RXFP1 ag: agonists of human relaxin receptor RXFP1 | Q9HBX9 | HEK293T-RXFP1 cAMP TR-FRET, 30 min; response scale: percent of porcine relaxin response, buffer zero | Potency, µM (highest dose often 57.5 µM), for the others: at the top dose activation, most hits filed as activators | 370,000 tested, 0.3% active; note: potency is the fitted concentration of half-maximal effect; % is set by controls: 0 for no effect and ±100 for the full control effect; nearly all actives have a fitted effect of over 60% in size
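HEK293 cells stably expressing RXFP1, treated 30 min at 37C with compounds plus PDE4 inhibitor Ro 20174; cAMP measured by HTRF TR-FRET. Normalized to buffer and 29 nM porcine relaxin; EC50 by Hill fit.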
The depositor's hits bear a star; ? = inconclusive; . = not tested or not shown; [ ] = another dose, or the depositor's remark. Unless noted, calls come from the whole dose curve; as a rule, active = well fitted curve in the direction sought with a large enough effect; inconclusive = small, poorly fitted or top-dose-only effect, or another doubt; inactive = no such curve, though single readings can be large; an effect the other way counts as inactive or inconclusive.

SMILES	miR-21 reporter	RXFP1 antag	gsp agonist	gsp antagonist	Luc counter	RXFP1 ag
Cc1ccc(-c2ccc(CCC(=O)O)n2-c2ccc(C(=O)O)cc2)cc1	-3%	2	-28%	-5%	.	-2%
COC(=O)c1ccc(-n2c(CCC(=O)O)ccc2-c2ccc(C)cc2)cc1	-5%	0	-23%	32µM*	.	1%
Cc1cccc(C)c1NS(=O)(=O)c1ccc(NC(=O)c2ccc(Cl)c([N+](=O)[O-])c2)cc1	?	-17	?	25µM*	-2%	2%
O=C(Nc1ccc(C(O)(C(F)(F)F)C(F)(F)F)cc1)c1ccc(Cl)c([N+](=O)[O-])c1	?	-89*	-39%	35µM*	0%	-2%
CCOc1ccc2oc(=O)cc(CN3CCN(C(=O)c4ccc(Cl)cc4)CC3)c2c1	10%	5	.	.	.	3%
CCC(C)NC(=O)c1ccc(-n2c(=S)[nH]c3ccccc3c2=O)cc1 (stereo not drawn)	-3%	-105*	-11%[15.4 µM]	6%	0%	4%
COC(CNC(=O)c1cccc(-n2c(=S)[nH]c3cc(Cl)ccc3c2=O)c1)OC	0%	-22	6%[15.4 µM]	-4%	0%	-1%
CCOC(=O)N1CCN(C(=O)c2ccc(-n3c(=S)[nH]c4ccccc4c3=O)cc2)CC1	-1%	-107*	5%	?	2%	29%
COC(CNC(=O)c1ccc(-n2c(=S)[nH]c3ccccc3c2=O)cc1)OC	1%	-75*	11%[15.4 µM]	-13%	1%	0%
CCN(CC)CCCC(C)NC(=O)c1ccc(-n2c(=O)c(=O)[nH]c3ccccc32)cc1 (stereo not drawn)	.	.	.	.	-1%	.
Cc1ccc(CNC(=O)C(C)n2nc(C)c3sc4ccccc4c3c2=O)cc1 (stereo not drawn)	-4%	-24	.	.	.	32µM*
C=CCNC(=O)/C(C#N)=C/c1ccc(OS(=O)(=O)c2ccc(C)cc2)c(OC)c1	1%	-61*	-1%	6%	-4%	3%
COC(=O)N/N=C/c1ccc(OS(=O)(=O)c2ccc(C)cc2)c(OC)c1	-16%	-14	-30%[15.4 µM]	-22%	3%	0%
COc1ccc(NC(=O)CN2CCC(C(=O)c3ccc(C)cc3)CC2)c(OC)c1	-9%	-9	?	-25%	.	2%
COc1ccc(OC)c(NC(=O)CN2CCC(C(=O)c3ccc(C)cc3)CC2)c1	-1%	-21	15%	28µM*	-1%	0%
COc1ccccc1CNC(=O)CCCn1c(=O)c2ccccc2n(Cc2ccccc2C#N)c1=O	-1%	.	.	.	.	0%
Cc1sc(NC(=S)NC(=O)c2ccco2)c(C(N)=O)c1C	-30%	-3	-2%[15.4 µM]	-19%	-3%	-2%
CNC(=O)c1c(NC(=O)c2ccco2)sc(C)c1C	.	-88*	-10%[15.4 µM]	3%	.	-1%
O=C(Nc1ccc(C(F)(F)F)cc1)C1(c2ccccc2)CC1	-15%	-63*	11%[15.4 µM]	-8%	-1%	-2%
CCc1ccc(NC(=O)c2ccc3c(c2)c(C)c(C)n3Cc2ccccc2)cc1	16%	-18	.	.	.	1%
COc1ccc(NC(=S)NCc2ccccc2)c(OC)c1	-1%	-73*	-3%	0%	.	0%
COc1ccc(NC(=S)NCCc2ccccc2)c(OC)c1	-3%	-7	-52%	7%	-1%	1%
CCC1CCCCN1S(=O)(=O)c1ccc(C(=O)Nc2nnc(-c3cccs3)o2)cc1 (stereo not drawn)	0%	-73*	5%	?	3%	1%
O=C(CS(=O)(=O)c1ccc(Cl)cc1)Nc1nnc(-c2cccs2)o1	-1%	-75*	?	1%	.	3%
O=C(c1ccc(CSc2nc3ccncc3[nH]2)cc1)N1CCCCCC1	9%	20	?	7%	.	25%
(listing goes on)
SMILES	miR-21 reporter	RXFP1 antag	gsp agonist	gsp antagonist	Luc counter	RXFP1 ag
Cc1ccc(CSc2nc3ccncc3[nH]2)cc1	29%	3	-3%	5%	11µM*	0%
O=C(c1ccc(CSc2nc3ccncc3[nH]2)cc1)N1CCN(c2cccc(Cl)c2)CC1	23%	-10	?	35µM*	-5%	0%
O=C(/C=C/c1c(C(=O)O)[nH]c2cc(Cl)cc(Cl)c12)Nc1ccccc1	.	.	.	.	1%	.
CCCC(=O)O[C@]1(C(=O)CC)CC[C@H]2[C@@H]3CCC4=CC(=O)CC[C@]4(C)[C@H]3[C@@H](O)C[C@@]21C	.	3	.	.	.	.
Cc1cc(OC(=O)c2ccccc2Cl)cc(=O)n1C	0%	-21	-18%	40µM*	-6%	2%
CC(C)(C)c1cc(NC(=O)COC(=O)c2ccc(O)cc2O)n(-c2ccccc2)n1	.	1	6%[15.4 µM]	-12%	.	0%
O=C(COC(=O)c1ccc(O)cc1O)Nc1cc(-c2ccccc2)nn1-c1ccccc1	.	-73*	-10%[15.4 µM]	35µM*	.	-1%
COc1cc(C2OC(=O)c3c2ccc(OC)c3OC)ccc1O (stereo not drawn)	.	.	.	.	.	-2%
Cc1nn(CCc2nn[nH]n2)c2nc(C(F)(F)F)cc(C(F)(F)F)c12	1%	-14	-3%	-6%	3%	1%
Cc1nn(CCc2nn[nH]n2)c2nc(-c3ccc(Br)cc3)cc(C(F)(F)F)c12	-8%	3	65%[15.4 µM]	-2%	2%	14µM*
CC(=O)c1cccc(NC(=O)c2ccc3c(c2)N(Cc2ccc(C)cc2)CCS3)c1	-3%	9	.	.	.	10%
CCOc1cc(C(=O)Nc2cc(C)ccn2)cc(OCC)c1OCC	14%	6	-4%	0%	-2%	0%
CCOc1ccc(C(=O)Nc2cc(C)ccn2)cc1	23%	-10	-3%[15.4 µM]	.	13µM*	-2%
COc1ccc(-n2nc(CCC(=O)N(C)O)cc2-c2ccc(Cl)cc2)cc1	.	-22	.	.	.	.
Cc1cc(C(=O)N/N=C/c2ccc(OCc3ccccc3)cc2)c(C)o1	-19%	-7	3%[15.4 µM]	-30%	4%	0%
COc1ccc(/C=N/NC(=O)c2cc(C)oc2C)cc1OCc1ccccc1	23%	-17	7%	13µM*	.	3%
CCOC(=O)Cn1c(=NC(=O)c2nc3ccccc3s2)sc2cc(S(N)(=O)=O)ccc21	-7%	-30	-4%[15.4 µM]	10µM*	-3%	24%
c1cc2[nH]snc2c2nc(C3CC3)nc12	12%	-15	25µM*	5%	-11%	5%
COc1ccccc1/C=C/C=N/n1c(-c2ccccc2)n[nH]c1=S	0%	-5	-2%[15.4 µM]	-9%	.	-2%
COc1ccccc1/C=C/C=N/n1c(-c2ccc(Cl)cc2)n[nH]c1=S	3%	-63*	-7%[15.4 µM]	-7%	.	-1%
COC(=O)c1sccc1NC(=O)Nc1ccccc1F	-5%	-1	-53%	1%	13µM*	2%

A portion taken from the entries so far, as a working copy:
SMILES	miR-21 reporter	RXFP1 antag	gsp agonist	gsp antagonist	Luc counter	RXFP1 ag
COc1ccc(OC)c(NC(=O)CN2CCC(C(=O)c3ccc(C)cc3)CC2)c1	-1%	-21	15%	28µM*	-1%	0%
COc1ccccc1CNC(=O)CCCn1c(=O)c2ccccc2n(Cc2ccccc2C#N)c1=O	-1%	.	.	.	.	0%
Cc1sc(NC(=S)NC(=O)c2ccco2)c(C(N)=O)c1C	-30%	-3	-2%[15.4 µM]	-19%	-3%	-2%
CNC(=O)c1c(NC(=O)c2ccco2)sc(C)c1C	.	-88*	-10%[15.4 µM]	3%	.	-1%
O=C(Nc1ccc(C(F)(F)F)cc1)C1(c2ccccc2)CC1	-15%	-63*	11%[15.4 µM]	-8%	-1%	-2%
CCc1ccc(NC(=O)c2ccc3c(c2)c(C)c(C)n3Cc2ccccc2)cc1	16%	-18	.	.	.	1%
